What was measured:
[1] = test system: rat; conditions: Prenatal developmental toxicity study, sprague dawley, Oral, Gavage/Intubation, dose end: 12 day
[2] = test system: rat; conditions: Sub-acute repeat dose toxicity; sprague dawley; Oral; Gavage/Intubation; dose end: 14 day; group: systemic; systemic / clinical chemistry / 5' nucleotidase / 5' nucleotidase + systemic / clinical chemistry / alanine aminotransferase (alt/sgpt) / …
[3] = test system: rabbit; conditions: Sub-acute repeat dose toxicity; new zealand white; Oral; Gavage/Intubation; dose end: 4 day; group: systemic; systemic / in life observation / body weight / body weight + systemic / in life observation / food consumption / food consumption
[4] = test system: rat; conditions: Sub-acute repeat dose toxicity; Oral; Gavage/Intubation; dose end: 10 day; group: systemic; systemic / hematology / erythrocyte (rbc) count differential / erythrocyte (rbc) + systemic / hematology / hematocrit (hct) / hematocrit (…
[5] = test system: rat; conditions: Prenatal developmental toxicity study, Oral, Gavage/Intubation, dose end: 12 day
[6] = test system: rat; conditions: Prenatal developmental toxicity study; other; Oral; Gavage/Intubation; dose end: 15 day; group: developmental; developmental / developmental malformation / general / [other]
[7] = test system: rat; conditions: Prenatal developmental toxicity study, fischer, Oral, Feed, dose end: 28 day (PND)
[8] = test system: rat; conditions: Prenatal developmental toxicity study; wistar; Injection; Subcutaneous; dose end: 21 PND; group: developmental; developmental / developmental landmark / incisor eruption / incisor eruption + developmental / developmental malformation / testes / delayed…
[9] = group: developmental, systemic / in life observation / body weight / fetal weight
[10] = group: maternal, systemic / in life observation / body weight / body weight + systemic / in life observation / body weight / body weight gain + systemic / in…
[11] = group: developmental, developmental / developmental malformation / bone / exencephaly + systemic / in life observation / body weight / fetal weight
[12] = group: maternal, systemic / in life observation / food consumption / food consumption + systemic / organ weight / uterus / nos + reproductive / offspring …
[13] = group: developmental, developmental / offspring survival late / [other] / [other] + systemic / in life observation / body weight / offspring (pup) weight
[14] = group: maternal, reproductive / reproductive performance / pregnancy / pregnancy

Structure (SMILES): COc1ccc(C(C)(C)C)cc1CN[C@H]1C2CCN(CC2)[C@H]1C(c1ccccc1)c1ccccc1
- LEL [1, 9]: 150 mg/kg/day
- LOAEL [1, 9]: > 150 mg/kg/day
- NOAEL [1, 9]: ≥ 150 mg/kg/day
- LEL [1, 10]: 75 mg/kg/day
- LOAEL [1, 10]: > 150 mg/kg/day
- NEL [1, 10]: 15 mg/kg/day
- NOAEL [1, 10]: ≥ 150 mg/kg/day
- LEL [2]: 150 mg/kg/day
- LEL [3]: 150 mg/kg/day

Structure (SMILES): CC(C)c1nnc2ccc(-c3ocnc3-c3cc(F)ccc3F)cn12
- LEL [4]: 250 mg/kg/day
- LEL [5, 11]: 250 mg/kg/day
- LOAEL [5, 11]: > 2000 mg/kg/day
- NEL [5, 11]: < 250 mg/kg/day
- NOAEL [5, 11]: ≥ 2000 mg/kg/day
- LOAEL [5, 10]: > 2000 mg/kg/day
- NOAEL [5, 10]: ≥ 2000 mg/kg/day
- LEL [5, 12]: 250 mg/kg/day
- NEL [5, 12]: < 250 mg/kg/day

Structure (SMILES): CCC(O)CO (centres undefined) [1,2-Butanediol]
- LEL [6]: 300 mg/kg/day
- LOAEL [6]: 300 mg/kg/day
- NEL [6]: 100 mg/kg/day
- NOAEL [6]: 100 mg/kg/day

Structure (SMILES): O=C1NC(=O)C(c2ccccc2)(c2ccccc2)N1 [5,5-Diphenylhydantoin]
- LOAEL [7, 13]: 40 mg/kg/day
- NEL [7, 13]: 4 mg/kg/day
- NOAEL [7, 13]: 12 mg/kg/day
- LEL ([7]; group: developmental, systemic / in life observation / body weight / offspring (pup) weight): 12 mg/kg/day
- LEL [7, 14]: 120 mg/kg/day
- LOAEL [7, 14]: 120 mg/kg/day
- NEL [7, 14]: 40 mg/kg/day
- NOAEL [7, 14]: 40 mg/kg/day

Structure (SMILES): ClC1=C(Cl)[C@]2(Cl)[C@H]3[C@H]([C@@H]4C=C[C@H]3C4)[C@@]1(Cl)C2(Cl)Cl [Aldrin]
- LEL [8]: 1 mg/kg/day
- LOAEL [8]: > 1 mg/kg/day
- NEL [8]: < 1 mg/kg/day
- NOAEL [8]: ≥ 1 mg/kg/day

Source: EPA's ToxRefDB 2
